# Results from patent US20240092926A1 (ONCORESPONSE, published 2024).
# Chains of the proteins cited; added tags and fusions are not shown. Residues count along the entry.
# UniProt Q86VB7, 46-1050 limits assumed: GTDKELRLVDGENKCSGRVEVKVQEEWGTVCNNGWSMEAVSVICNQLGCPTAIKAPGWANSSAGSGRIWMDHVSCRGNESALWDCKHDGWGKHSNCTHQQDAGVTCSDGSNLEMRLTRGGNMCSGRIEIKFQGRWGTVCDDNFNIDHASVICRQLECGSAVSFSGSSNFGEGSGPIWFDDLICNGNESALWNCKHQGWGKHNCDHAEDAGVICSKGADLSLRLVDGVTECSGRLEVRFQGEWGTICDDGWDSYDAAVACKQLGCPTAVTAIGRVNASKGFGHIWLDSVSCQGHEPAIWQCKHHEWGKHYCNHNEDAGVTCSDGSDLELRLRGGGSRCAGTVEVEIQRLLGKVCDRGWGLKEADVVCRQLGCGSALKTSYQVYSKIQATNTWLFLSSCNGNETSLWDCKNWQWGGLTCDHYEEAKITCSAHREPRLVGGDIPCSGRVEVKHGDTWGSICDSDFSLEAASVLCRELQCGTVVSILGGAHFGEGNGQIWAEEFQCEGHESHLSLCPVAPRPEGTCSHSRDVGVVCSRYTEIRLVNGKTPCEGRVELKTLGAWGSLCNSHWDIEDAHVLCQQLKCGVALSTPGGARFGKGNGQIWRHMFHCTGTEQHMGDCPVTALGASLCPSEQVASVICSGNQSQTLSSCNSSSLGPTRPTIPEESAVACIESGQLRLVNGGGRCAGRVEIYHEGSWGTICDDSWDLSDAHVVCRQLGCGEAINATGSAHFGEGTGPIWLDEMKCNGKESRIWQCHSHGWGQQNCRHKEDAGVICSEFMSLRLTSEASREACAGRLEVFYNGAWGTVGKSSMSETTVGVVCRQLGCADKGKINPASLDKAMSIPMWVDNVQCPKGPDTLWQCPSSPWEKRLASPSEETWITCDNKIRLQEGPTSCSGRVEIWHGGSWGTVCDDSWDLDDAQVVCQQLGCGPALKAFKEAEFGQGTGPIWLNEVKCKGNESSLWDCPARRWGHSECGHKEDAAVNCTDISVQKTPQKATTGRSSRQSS
# UniProt Q86VB7, 42-1050 limits assumed: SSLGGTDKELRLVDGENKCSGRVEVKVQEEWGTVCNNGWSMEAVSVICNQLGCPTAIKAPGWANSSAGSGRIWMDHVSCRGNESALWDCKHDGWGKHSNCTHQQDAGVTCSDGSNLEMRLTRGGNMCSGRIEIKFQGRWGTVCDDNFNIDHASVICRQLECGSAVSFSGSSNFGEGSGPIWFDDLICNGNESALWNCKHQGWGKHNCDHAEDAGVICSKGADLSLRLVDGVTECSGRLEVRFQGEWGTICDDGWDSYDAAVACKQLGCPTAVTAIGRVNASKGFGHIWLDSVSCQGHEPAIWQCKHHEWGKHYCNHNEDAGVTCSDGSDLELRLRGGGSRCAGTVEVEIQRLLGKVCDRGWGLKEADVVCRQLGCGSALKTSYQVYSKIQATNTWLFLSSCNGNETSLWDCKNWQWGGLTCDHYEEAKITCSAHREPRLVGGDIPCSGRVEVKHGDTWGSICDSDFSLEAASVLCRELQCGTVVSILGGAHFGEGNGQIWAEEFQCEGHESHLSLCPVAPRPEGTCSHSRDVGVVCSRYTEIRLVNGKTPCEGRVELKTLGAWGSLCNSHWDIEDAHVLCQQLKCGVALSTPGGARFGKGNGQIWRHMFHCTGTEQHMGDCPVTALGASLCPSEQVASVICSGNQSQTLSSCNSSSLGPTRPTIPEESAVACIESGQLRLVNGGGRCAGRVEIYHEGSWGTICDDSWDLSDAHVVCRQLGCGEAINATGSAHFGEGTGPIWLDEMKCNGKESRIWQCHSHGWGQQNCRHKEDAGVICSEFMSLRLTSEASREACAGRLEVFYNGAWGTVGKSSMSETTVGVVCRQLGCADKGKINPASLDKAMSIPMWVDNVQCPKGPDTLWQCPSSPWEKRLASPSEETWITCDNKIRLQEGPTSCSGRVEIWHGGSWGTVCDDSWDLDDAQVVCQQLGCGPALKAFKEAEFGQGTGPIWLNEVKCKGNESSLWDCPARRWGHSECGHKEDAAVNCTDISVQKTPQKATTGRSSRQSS
# Read-outs that look alike come from different tables or passages of the source.
# B1: AB101 parental antibody (antibody, human IgG1)
# VH: EVQLVESGGGVVQPGRSLRLSCAASGFTFSSYAMHWVRQAPGKGLEWVAVISYDGSNKYYADSVKGRFTISRDNSKNTLYLQMNSLRAEDTAVYYCARENVRPYYDFWSGYYSEYYYYGMDVWGQGTTVTVSSASTKGPSVFPLAPSSKSTSGGTAALGCLVKDYF
# VL: not shown
# Columns and labels:
# [1] = target: T1, His-tagged recombinant human CD163 (R&D Systems, No. 1607-CD-050) (human, UniProt Q86VB7 46-1050, limits assumed); experiment: ELISA, plate coated with His-tagged recombinant human CD163 at 5 µg/mL, detection with anti-human IgG F(ab')2-HRP, A450; log axis in nM
# T1 construct: Bought protein; also called recombinant CD163 protein; huCD163; not shown: His tag
# Procedure: (§1) CD163 variant antibody binding to His-tagged recombinant human CD163 (R&D Systems, No. 1607-CD-050) protein was determined using ELISA. Recombinant protein was diluted in PBS to 5 μg/mL and added to 384-well high-binding ELISA plates (Greiner Bio-One, No. 781061) at 25 μL per well and incubated at 4° C. overnight. The plates were washed three times with PBS, using a BioTek ELx405 Select microplate washer (wash program ELISA_384_PBS_3×_wash) and then blocked with 90 μL/well of blocking buffer (2% nonfat, dry milk/PBS+0.05% Tween 20) for 1 hour at RT.
# (§2) After blocking, 25 μL per well of primary antibodies were added to the plates and incubated for 1 hour at RT. The isotype control was a proprietary mAb, in human IgG1 frameworks, with known specificity. After primary antibody binding, plates were washed three times with PBS using the EL405× (wash program ELISA_384_PBS 3×_wash). The secondary antibody was a goat anti-human IgG F(ab′)₂ HRP (Jackson Immunoresearch, No. 109-035-097). Secondary antibody was diluted to 1:2500 in 2% nonfat, dry milk/PBS, and 25 μL per well was added to the wells and incubated at RT for 1 hour. The plates were washed four times with PBS, using the EL405× (wash program ELISA_384_PBS_4× wash). […] After development, the reaction was stopped by adding 25 μL per well of 0.3 M HCl and plates were read using a SpectraMax M5e instrument at 450 nm.
# [2] = target: T2, Biotin-labeled human CD163 (human, UniProt Q86VB7 42-1050, limits assumed, biotin-labeled (sites not given)); experiment: BLI (Octet RED96), b-huCD163 on SA biosensor, Ab at 100/150/200/250 nM
# T2 construct: Biotinylated form of the human CD163 antigen, immobilised on SA biosensors for BLI; also called b-huCD163; Human CD163 Protein (biotinylated)
# Procedure: Samples were prepared as follows; Dilute antigen b-huCD163 to 2 pg/mL with PBS buffer; Dilute AB101 parental Ab to a series of concentration (100/150/200/250 nM) with PBST buffer. Results are described in Table 5:
# The SA sensors were placed in the PBS buffer for 15 minutes. Different solutions were added to a 96-well plate according to the following orders, with 200 μL per well.
# [3] = target: T2, Biotin-labeled human CD163; experiment: BLI (Octet RED96), b-huCD163 on SA biosensor, one Ab concentration 50.0 nM
# [4] = target: T1, His-tagged recombinant human CD163 (R&D …); experiment: ELISA, plate coated with His-tagged recombinant human CD163 at 5 µg/mL, detection with anti-human IgG F(ab')2-HRP, A450; log axis in nM; remark: listed apart in the source
# Procedure: as §1, §2
# [5] = target: T1, His-tagged recombinant human CD163 (R&D …); experiment: as above; remark: listed apart in the source
# Procedure: as §1, §2
# [6] = target: T1, His-tagged recombinant human CD163 (R&D …); experiment: as above; remark: listed apart in the source
# Procedure: as §1, §2
# [7] = target: T1, His-tagged recombinant human CD163 (R&D …); experiment: as above; remark: listed apart in the source
# Procedure: as §1, §2
# [8] = target: T1, His-tagged recombinant human CD163 (R&D …); experiment: as above; remark: listed apart in the source
# Procedure: as §1, §2
binder,measurement,setting,value
B1,EC50 (read off the curve),[1],~0.08 nM
same,Kd,[2],661 nM
same,koff,[2],0.0316 s⁻¹
same,kon,[2],47800 M⁻¹ s⁻¹
same,Kd,[3],878 nM
same,koff,[3],0.0296 s⁻¹
same,kon,[3],33700 M⁻¹ s⁻¹
same,EC50 (read off the curve),[4],~0.08 nM
same,EC50 (read off the curve),[5],~0.08 nM
same,EC50 (read off the curve),[6],~0.08 nM
same,EC50 (read off the curve),[7],~0.08 nM
same,EC50 (read off the curve),[8],~0.08 nM
